Chains of the proteins cited; added tags and fusions are not shown.
UniProt P61169, whole entry: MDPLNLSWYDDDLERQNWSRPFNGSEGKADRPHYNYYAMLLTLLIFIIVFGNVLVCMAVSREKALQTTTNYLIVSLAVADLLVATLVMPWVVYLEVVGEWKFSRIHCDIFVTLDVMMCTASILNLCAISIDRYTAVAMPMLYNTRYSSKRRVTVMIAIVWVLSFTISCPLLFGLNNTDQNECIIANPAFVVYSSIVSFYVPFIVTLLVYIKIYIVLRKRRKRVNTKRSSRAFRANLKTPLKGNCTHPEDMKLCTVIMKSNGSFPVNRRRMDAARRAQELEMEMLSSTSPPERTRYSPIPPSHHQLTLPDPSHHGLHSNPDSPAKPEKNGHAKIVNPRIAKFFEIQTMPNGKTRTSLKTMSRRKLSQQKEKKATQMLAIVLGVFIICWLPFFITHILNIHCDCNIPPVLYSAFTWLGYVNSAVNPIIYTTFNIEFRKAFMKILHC

In ChEMBL document CHEMBL1126803, “Stereospecific and selective 5-HT2 antagonism in a series of 5-substituted trans-1-piperazino-3-phenylindans” (J Med Chem, 1993):

Target: D(2) dopamine receptor (Rattus norvegicus, UniProt P61169)
Assay: Displacement of [3H]spiperone from dopamine D2 receptors in rat striatal membranes
Type: cell membranes, Membrane
Summary of the method: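 Radioligand displacement from rat brain membranes: 3H-ketanserin on cortical membranes (5-HT2), 3H-prazosin on whole brain membranes (alpha1), 3H-spiperone on striatal membranes (D2). Two full concentration-effect curves per compound, each with five test drug concentrations in triplicate spanning three decades. IC50 estimated from curves on a log-concentration scale. Outliers beyond 3 times the sd-ratio were discarded after extra determinations.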

IC50: 360 nM
Structure (SMILES): O=C1NCCN1CCN1CCN(C2CC(c3ccc(F)cc3)c3cc(Cl)ccc32)CC1 (stereo unspecified)
